Yeast mating assay 1: variants of the scFv Ab-14

Target peptide (SARS-CoV-2 spike, HR2 region): PDVDLGDISGINAS

Ab-14 is the parent antibody, in scFv form: VH, then the linker GGGGSGGGGSGGGGS, then VL. The heavy chain is unchanged in all variants.
VH: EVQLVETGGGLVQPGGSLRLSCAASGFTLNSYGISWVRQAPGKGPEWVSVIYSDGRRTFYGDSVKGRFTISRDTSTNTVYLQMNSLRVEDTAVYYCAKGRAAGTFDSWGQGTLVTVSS
VL: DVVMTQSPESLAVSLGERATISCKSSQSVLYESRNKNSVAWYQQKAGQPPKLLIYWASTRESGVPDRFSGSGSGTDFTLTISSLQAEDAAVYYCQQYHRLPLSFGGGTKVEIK

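The starting antibody came from a phage panning campaign against this peptide. AAYL50 was designed without a model: most single CDR substitutions and a random sample of double and triple ones. In AlphaSeq, yeast of one mating type display the scFv and yeast of the other type display the target. The frequency of each diploid, read from paired DNA barcodes, reflects how well the two displayed proteins bind. A regression on co-assayed BCL2-family reference pairs converts the normalised counts of each replicate to an apparent Kd. The assay was run in three technical replicates.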

Positions count from residue 1 of the parent VL; A40R puts R in place of A. Scale: log10 of Kd in nM, estimated from mating counts; low values are strong binders. A mean of the replicates is given; it leaves out those without a signal. Where no diploid with the target was found in any replicate, the entry reads "not detected": below detection, most likely a poor binder, though not proof of it. In this assay the parent's reference entry averaged 0.65; its copy inside this library read 1.68. Nonspecific signal, from three strains lacking the peptide, appeared in 18% of pairings of library AAYL50, centred on 4.19 (5% of these signals below 2.99); values are not corrected for it.

| mean, log10 nM | replicates with signal | changes |
|---|---|---|
| not detected | 0/3 | A40R+E61G+H98F |
| 2.95 | 2/3 | K24G+E32K+Q96N |
| 4.42 | 1/3 | R34Y+K36H+S38L |
| 2.15 | 1/3 | S26M+R34A+S58W |
| 0.61 | 3/3 | S25K+N35Q+E61S |
| 1.36 | 3/3 | S26P+Q27Y+N35G |
| not detected | 0/3 | S28C+E32F+L102D |
| 4.17 | 3/3 | S28G+S33Q+S103N |
| 3.21 | 1/3 | V29R+T59G+Q96K |
| 2.17 | 3/3 | Y31Q+E61R+Y97I |
| 4.42 | 3/3 | V29C+S33Q+S58I |
| 0.76 | 3/3 | K36A+Q95E+S103M |
| not detected | 0/3 | S38R+A57Q+L102R |
| 3.03 | 3/3 | E32K+Q96C+H98F |
| 5.21 | 1/3 | Q27I+Q96P |
| 2.21 | 3/3 | Q27M+V29H+T59A |
| 1.27 | 3/3 | L30S+N37T+R99M |
| 2.86 | 3/3 | S28T+L30P+Y97G |
| -0.03 | 3/3 | S26N+V29L+W56E |
| 1.09 | 3/3 | S58E+L100M |
| not detected | 0/3 | K24L+S26F+S58K |
| 4.62 | 2/3 | S38A+S58C+L100T |
| 4.21 | 2/3 | S62V+H98P+L100K |
| 1.23 | 3/3 | Y31V+E32D+N37T |
| not detected | 0/3 | S25Q+V39C+E61Y |
| 0.42 | 3/3 | S25I+Y31N+S62G |
| 0.58 | 3/3 | A57G+H98Y+S103H |
| not detected | 0/3 | N35A+A40T |
| 4.47 | 2/3 | S38R+Q95F |
| 0.13 | 3/3 | S25L+V29C+E32G |
| 2.10 | 3/3 | Y31S+N35W+R60M |
| 1.89 | 3/3 | S25D+S26N+N37E |
| 3.13 | 1/3 | K24M+S38N+S58W |
| not detected | 0/3 | E32W+R34Y+Q95I |
| 5.01 | 2/3 | E32M+N37T+Q95T |
| not detected | 0/3 | T59I+L100N |
| 2.90 | 3/3 | A57M+T59D+P101F |
| 4.11 | 2/3 | Q27V+H98W+L102Q |
| 1.85 | 3/3 | L30W+E32S+P101G |
| -0.17 | 3/3 | S25I+S33P+H98C |
| 4.92 | 2/3 | V29Q+K36N+Q96H |
| 4.33 | 2/3 | Y31L+Q96Y+H98P |
| 3.69 | 3/3 | Q27V+S28Q+S38K |
| 5.18 | 1/3 | S38E+S58R+Y97L |
| 2.76 | 2/3 | Q27C+N37L |
| 2.56 | 3/3 | L30E+N37F+P101H |
| not detected | 0/3 | V29W+A57K+Y97V |
| not detected | 0/3 | K36T+N37C+A40P |
| 1.04 | 3/3 | Q27R+S28E+H98Q |
| not detected | 0/3 | A57I+H98G+P101V |
| 1.75 | 3/3 | Q27D+T59L+S62C |
| 4.75 | 1/3 | E61P+Q95M+R99H |
| 4.70 | 3/3 | S26R+S28C+S33R |
| 0.93 | 3/3 | S26M+E61Y+S62Q |
| 2.10 | 2/3 | S28I+V29K+S58Q |
| 1.14 | 3/3 | S25I+S26G+Q95I |
| 1.50 | 3/3 | Y31W+E32S+R99A |
| 2.53 | 3/3 | S28C+Y31A+T59F |
| not detected | 0/3 | V29C+L30G+S103P |
| 2.93 | 2/3 | L30Q+S38C+Q96L |
| not detected | 0/3 | L30T+N37Q+S38V |
| 4.22 | 1/3 | A40E+A57K+Y97M |
| 2.35 | 3/3 | S25A+V29G+P101M |
| not detected | 0/3 | S28H+E32I+L102R |
| 2.05 | 3/3 | K24Q+S28W+K36L |
| 2.07 | 3/3 | L30P+E32A+N37C |
| 3.76 | 2/3 | K24F+S62G+L100M |
| 3.16 | 1/3 | T59E+Q95D+L100Q |
| not detected | 0/3 | L100W+L102W+S103C |
| 2.62 | 3/3 | R60V+E61N+L102N |
| not detected | 0/3 | S33W+R60D+R99K |

For reference, 11 entries of the list once more:

{"changes": "S28H+E32I+L102R", "mean, log10 nM": "not detected", "replicates with signal": "0/3"}
{"changes": "K36T+N37C+A40P", "mean, log10 nM": "not detected", "replicates with signal": "0/3"}
{"changes": "E32W+R34Y+Q95I", "mean, log10 nM": "not detected", "replicates with signal": "0/3"}
{"changes": "Q27D+T59L+S62C", "mean, log10 nM": "1.75", "replicates with signal": "3/3"}
{"changes": "S25I+S33P+H98C", "mean, log10 nM": "-0.17", "replicates with signal": "3/3"}
{"changes": "Y31W+E32S+R99A", "mean, log10 nM": "1.50", "replicates with signal": "3/3"}
{"changes": "S38R+A57Q+L102R", "mean, log10 nM": "not detected", "replicates with signal": "0/3"}
{"changes": "A40E+A57K+Y97M", "mean, log10 nM": "4.22", "replicates with signal": "1/3"}
{"changes": "S33W+R60D+R99K", "mean, log10 nM": "not detected", "replicates with signal": "0/3"}
{"changes": "V29R+T59G+Q96K", "mean, log10 nM": "3.21", "replicates with signal": "1/3"}
{"changes": "E32K+Q96C+H98F", "mean, log10 nM": "3.03", "replicates with signal": "3/3"}

From the AlphaSeq antibody data of Engelhart et al. 2022 (doi:10.1038/s41597-022-01779-4), copy in the FLAb collection.